Patent US4902799A, “Bicyclic alkoxy- and alkylthio-substituted aminoalcohols” (Maggioni-Winthrop S.p.A., priority 1985, dated 1990)

The chains behind the UniProt entries cited, without tags or fusion partners.
UniProt P22909, whole entry: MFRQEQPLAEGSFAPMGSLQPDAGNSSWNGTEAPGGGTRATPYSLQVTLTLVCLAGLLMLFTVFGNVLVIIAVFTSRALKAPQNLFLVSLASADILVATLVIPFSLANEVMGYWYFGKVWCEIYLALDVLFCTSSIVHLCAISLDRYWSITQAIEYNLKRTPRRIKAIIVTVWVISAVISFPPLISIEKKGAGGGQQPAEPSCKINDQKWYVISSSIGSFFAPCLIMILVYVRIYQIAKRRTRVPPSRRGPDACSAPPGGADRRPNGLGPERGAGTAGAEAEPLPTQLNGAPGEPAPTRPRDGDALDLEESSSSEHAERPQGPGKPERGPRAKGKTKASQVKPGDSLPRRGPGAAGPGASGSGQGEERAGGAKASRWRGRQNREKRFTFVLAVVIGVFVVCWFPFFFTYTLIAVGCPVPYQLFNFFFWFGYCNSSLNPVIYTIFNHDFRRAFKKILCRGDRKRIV
UniProt P14842, whole entry: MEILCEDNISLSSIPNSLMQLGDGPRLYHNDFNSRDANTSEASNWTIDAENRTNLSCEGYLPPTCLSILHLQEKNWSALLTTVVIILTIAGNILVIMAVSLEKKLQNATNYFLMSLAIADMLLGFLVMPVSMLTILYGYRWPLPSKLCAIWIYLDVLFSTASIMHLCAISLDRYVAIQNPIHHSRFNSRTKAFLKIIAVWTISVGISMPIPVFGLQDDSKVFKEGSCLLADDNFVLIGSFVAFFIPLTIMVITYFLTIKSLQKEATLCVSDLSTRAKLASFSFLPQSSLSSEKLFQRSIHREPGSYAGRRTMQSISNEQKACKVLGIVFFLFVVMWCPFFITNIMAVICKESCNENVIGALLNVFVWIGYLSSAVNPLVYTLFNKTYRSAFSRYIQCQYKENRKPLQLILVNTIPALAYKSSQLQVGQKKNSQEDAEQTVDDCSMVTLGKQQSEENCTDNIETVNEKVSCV

Assays:
toxic adrenaline doses = assay: Protection against toxic adrenaline doses; type: in vivo, mouse (male mice CrI:CD 1(CR) BR); details: for PD50 (50% protective dose): 14.5 mg/kg l-adrenaline i.p. 2 hrs after oral treatment, mortality at 24 hrs; for protective activity compared with known drugs: oral, mice
male mice [1] = assay: Anti-hypoxic activity (gasping time after decapitation); type: in vivo, mouse; details: pretreatment 90 min
platelet aggregation = assay: Collagen-induced platelet aggregation ex vivo; type: in vivo, rat; details: 0.15 mM/kg oral, blood 1 hr after treatment, collagen 2-4 mcg/ml
[2] = test system: phenylephrine (PHE) induced hypertension; assay: Antagonism against phenylephrine (PHE) induced hypertension; details: test drugs 1 mg/kg i.v.
[3] = test system: SH rats (spontaneously hypertensive rats); assay: Anti-hypertensive activity in spontaneously hypertensive rats, tail artery plethysmography; type: in vivo, rat; details: SHR
male mice [4] = assay: Acute toxicity per os
[5] = molecular target: alpha2-adrenergic receptors (Rattus norvegicus, UniProt P22909); assay: Inhibition of 3H-Clonidine binding to rat brain membrane
[6] = molecular target: serotoninergic2 (5-HT2) receptors (Rattus norvegicus, UniProt P14842); assay: Inhibition of 3H-Spiperone binding to rat brain membrane
[7] = test system: alpha1-adrenergic receptors; assay: Inhibition of 3H-Prazosin binding to rat brain membrane

## COc1cc2ccc(C(O)CN3CCC(n4c(=O)[nH]c5ccccc54)CC3)cc2cc1OC (centres unmarked)
Toxic adrenaline doses
  PD50 (50% protective dose): 5.05 mg/kg/p.o.

## COc1ccc2cc(C(O)C(C)N3CCC(n4c(=O)[nH]c5cc(Cl)ccc54)CC3)ccc2c1 (centres unmarked)
Male mice [1]; 100 mg/kg/p.o.
  Gasping time, % diff. from control: +61.3%
Platelet aggregation
  % Inhibition, Aggregation rate: 64.6%
  % Inhibition, Maximum aggregation: 64.0%
Toxic adrenaline doses
  PD50 (50% protective dose): 5.8 mg/kg/p.o.

## CC(C)Oc1ccc2cc(C(O)C(C)N3CCC(n4c(=O)[nH]c5ccccc54)CC3)ccc2c1 (centres unmarked)
[2]
  PHE dosis causing a 50 mm Hg increase of the arterial pressure, in comparison with the controls: 20-25 times
Male mice [1]; 50 mg/kg/p.o.
  Gasping time, % diff. from control: +39.3%
Male mice [1]; 100 mg/kg/p.o.
  Gasping time, % diff. from control: +85.7%
Toxic adrenaline doses
  PD50 (50% protective dose): 1.8 mg/kg/p.o.

## COc1cc2ccc(C(O)C(C)N3CCC(n4c(=O)[nH]c5ccccc54)CC3)cc2cc1OC (centres unmarked)
[3]; 1 mg/kg p.o.
  Max. changes in systolic pressure: -14.4 mmHg
[3]; 5 mg/kg p.o.
  Max. changes in systolic pressure: -31 mmHg
[3]; 15 mg/kg p.o.
  Max. changes in systolic pressure: -48.2 mmHg
Male mice [4]
  LD50: higher than 1000 mg/kg
[2]
  PHE dosis causing a 50 mm Hg increase of the arterial pressure, in comparison with the controls: 20-25 times
Male mice [1]; 50 mg/kg/p.o.
  Gasping time, % diff. from control: +52.5%
Male mice [1]; 100 mg/kg/p.o.
  Gasping time, % diff. from control: +126.2%
Toxic adrenaline doses
  PD50 (50% protective dose): 0.95 mg/kg/p.o.
  protective activity compared with known drugs: comparable with Prazosin

## CC(C)Oc1ccc2cc(C(O)CN3CCC(n4c(=O)[nH]c5ccccc54)CC3)ccc2c1 (centres unmarked)
Male mice [4]
  LD50: higher than 2000 mg/kg
Toxic adrenaline doses
  PD50 (50% protective dose): 10.0 mg/kg/p.o.

## COc1ccc2cc(C(O)CN3CCC(n4c(=O)[nH]c5ccccc54)CC3)ccc2c1 (centres unmarked)
[3]; 1 mg/kg p.o.
  Max. changes in systolic pressure: -13.6 mmHg
[3]; 5 mg/kg p.o.
  Max. changes in systolic pressure: -39 mmHg
[3]; 15 mg/kg p.o.
  Max. changes in systolic pressure: -68 mmHg
Male mice [4]
  LD50: higher than 2000 mg/kg
[5]; 5.4 × 10^-6 M
  % Inhibition of specific binding: 13%
[5]; 5.4 × 10^-7 M
  % Inhibition of specific binding: 0%
[6]; 5.4 × 10^-6 M
  % Inhibition of specific binding: 83%
[6]; 5.4 × 10^-7 M
  % Inhibition of specific binding: 36%
Toxic adrenaline doses
  PD50 (50% protective dose): 5.4 mg/kg/p.o.

## CSc1ccc2cc(C(O)C(C)N3CCC(n4c(=O)[nH]c5ccccc54)CC3)ccc2c1 (centres unmarked)
Male mice [4]
  LD50: higher than 2000 mg/kg
[7]; 5.4 × 10^-6 M
  % Inhibition of specific binding: 99%
[7]; 5.4 × 10^-7 M
  % Inhibition of specific binding: 99%
[5]; 5.4 × 10^-6 M
  % Inhibition of specific binding: 26.5%
[5]; 5.4 × 10^-7 M
  % Inhibition of specific binding: 8%
[6]; 5.4 × 10^-6 M
  % Inhibition of specific binding: 25%
[6]; 5.4 × 10^-7 M
  % Inhibition of specific binding: 0%
Toxic adrenaline doses
  PD50 (50% protective dose): 0.6 mg/kg/p.o.
  protective activity compared with known drugs: comparable with Prazosin

Only a part of the results on these compounds is given; other tests are left out.
